Results on seven compounds are retold here after BindingDB's records for doi:10.1021/jm00137a012 (1981).

The test addresses T1, Dihydrofolate reductase (Bos taurus, UniProt P00376).
T1 sequence (P00376 whole entry): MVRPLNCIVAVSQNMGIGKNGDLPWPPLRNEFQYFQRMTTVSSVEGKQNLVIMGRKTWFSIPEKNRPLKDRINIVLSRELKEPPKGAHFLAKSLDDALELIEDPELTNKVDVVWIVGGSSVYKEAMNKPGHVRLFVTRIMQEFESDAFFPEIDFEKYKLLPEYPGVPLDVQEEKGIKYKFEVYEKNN
The experiment in a line: Inhibition of dihydrofolate reductase from bovine liver.
Turning to `Nc1ncc(Cc2ccc([N+](=O)[O-])cc2)c(N)n1`, the affinity corresponds to a Ki of 9.55 µM.

For the compound `Nc1ncc(Cc2cccc(Br)c2)c(N)n1`, the Ki – broadly, the equilibrium dissociation constant of an inhibitor or competing ligand from its target – was 2.88 µM.

Consider `Nc1ncc(Cc2ccc(F)cc2)c(N)n1`, for which affinity was put at a Ki of 6.61 µM.

Consider `Nc1ncc(Cc2cccc(Cl)c2)c(N)n1`, for which the Ki was 3.39 µM.

`CN(C)c1ccc(Cc2cnc(N)nc2N)cc1` yielded a Ki of 17.4 µM.

`Nc1ncc(Cc2ccc(Br)cc2)c(N)n1` showed a Ki of 6.76 µM.

Regarding `COc1ccc(Cc2cnc(N)nc2N)cc1` [5-(4-Methoxy-benzyl)-pyrimidine-2,4-diamine], the inhibition constant (Ki) was found to be 12 µM.
